Test system: Thymidylate synthase (Bos taurus)
Assay: Inhibition of Calf thymus thymidylate synthase in the presence of 20 uM

CN(CC1CCc2nc(N)nc(O)c2C1)c1ccc(C(=O)NC(CCC(=O)O)C(=O)O)cc1 (stereo unspecified)
inhibition: 50%

Source: ChEMBL document CHEMBL1123906, “Folate analogues. 30. Synthesis and biological evaluation of N10-propargyl-5,8-dideaza-5,6,7,8-tetrahydrofolic acid and related compounds” (J Med Chem, 1987)
